Rows were chosen to be rich in hits. Some 1.5% of all compounds tested hit in one or more screens of this group.
Env fusion inh = inhibitors of HIV Env-mediated cell fusion | HeLa-JRFL Env/CEM21 cell fusion, luciferase | AID 651610 | inhibition, % at 12.3 µM | 360,000 compounds, 1.1% hits;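 active = mean replicate inhibition score of at least 50 and every replicate individually at or above 50; inconclusive = only one of the two criteria met; inactive = mean below 50 and not all replicates reaching 50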;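 note: 0% = plate neutral controls and 100% = maraviroc near 300 nM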
PGC1a acetyl inh = PGC1a acetylation modulation, inhibitor mode; U2OS PGC1a acetylation, AlphaScreen anti-acetyl-lysine; with virally co-expressed GCN5 acetyltransferase; inhibition, % at 15.6 µM; 350,000 compounds, 0.17% hits; AID 651687;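 active = every replicate shows inhibition of at least 40%; inconclusive = mean inhibition at least 40% but some replicate below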;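 note: 0% = neutral control wells and 100% = positive control wells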
Cneo AK release = Cryptococcus neoformans lysis via adenylate kinase release; 360,000 compounds, 0.2% hits; lysis activity, % at 15 µM; AID 651654; C. neoformans lysis, adenylate kinase release luminescence, 4 h; normalised: neutral wells 0, clomiphene wells 100;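 active = mean lysis activity across replicates of at least 80%, whatever share of replicates individually reach that level; inactive = mean lysis activity below 80%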
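Material – log-phase Cryptococcus neoformans yeast cells · Input – 5 × 10^6 yeast cells/mL · Medium – fresh YPD growth medium · Doses – single compound concentration per well · Timing – static 4 h at 37 °C with compound, 1 h detection · Detection – adenylate kinase release luminescence · Read-out – signal increase indicating cell lysis · Control set – Clomiphene as positive lysis control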
miR122 inh = inhibitors of miR-122 in Huh7 cells. activation (reporter increase), % at 12.5 µM. 340,000 compounds, 0.3% hits. Huh7 miR-122 Renilla luciferase sensor, 48 h; neutral wells = 0, positive control = 100;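 active = mean replicate activation score at least 90 and every replicate individually at or above 90; inconclusive = only one of the two criteria met; inactive = neither criterion met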;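 note: higher luciferase means less miR-122 activity so hits act as miR-122 inhibitors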
FN deposition inh = fibronectin deposition inhibition; AH1F fibroblasts, Alexa488-fibronectin deposition fluorescence, overnight; inhibition, % at 12.6 µM; 350,000 compounds, 0.086% hits;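 active = mean inhibition across replicates of 30% or more, regardless of how many single replicates reach that level; inconclusive = mean under 30% yet at least half of replicates reach 30%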;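 note: positive control wells lacked labelled fibronectin entirely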
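Assay system: AH1F fibroblasts / Quantity: 10000 cells per well / Medium: DMEM plus 2% serum, read in PBS / Reagent: labelled fibronectin 24 nM / Dosing: single dose, pinned / Times: 1 h cell attachment, overnight exposure to compound and label / Signal: fluorescence, ex 485 nm, em 525 nm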
Yeast UUG start = modulators of yeast start codon fidelity, primary screen, whole organism, S. cerevisiae, single point, plate reader; S. cerevisiae UUG-firefly luciferase reporter, luminescence/redox ratio; activity score, % at 18.7 µM; actives 0.13% (n = 350,000); AID 602363, 2012;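 active = replicate mean at a twofold rise or more, about +100% in these data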;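 also: firefly luciferase made from a UUG start codon reports start codon fidelity; reporter light over untreated wells divided by growth signal over untreated wells; some hits fall short of that in this replicate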
Active calls of the source: *; i = inactive; ? = inconclusive; . = no result; [ ] = remark or other dose.

Value order – Env fusion inh, PGC1a acetyl inh, Cneo AK release, miR122 inh, FN deposition inh, Yeast UUG start
CC(=O)OCC(=O)[C@@]1(O)[C@H](C)C[C@H]2[C@@H]3CCC4=CC(=O)C=C[C@]4(C)[C@@]3(F)[C@@H](O)C[C@@]21C
→ i, -3, 0, 1, -8, -5
CC(=NNC(=S)SCc1ccccc1)c1ccccn1
→ 79*, ., ., ., 7, .
CC(=NNC(=S)N1CCCC1)c1ccccn1
→ 33, -2, 1, 53, 3, -24
CCOC(=O)[C@]12CCCC=C1N(Cc1ccccc1)C(=O)[C@H](CC(=O)NCc1ccc(OC)c(OC)c1)C2
→ 0, ., ., ., 5, .
COC(=O)[C@]12CCCCC=C1N(CCC1=CCCCC1)C(=O)[C@H](CC(=O)NCc1ccc(OC)c(OC)c1)C2
→ 80*, ., ., ., 6, .
COC(=O)[C@]12CCCCC=C1N(Cc1ccccc1)C(=O)[C@H](CC(=O)NCc1ccc(OC)c(OC)c1)C2
→ -22, ., ., ., ., .
CCOC(=O)[C@]12CCCC=C1N(CCC1=CCCCC1)C(=O)[C@H](CC(=O)NCc1ccc(OC)c(OC)c1)C2
→ 71*, ., ., ., 6, .
CCOC(=O)[C@]12CCCC=C1N(Cc1cccc3ccccc13)C(=O)[C@H](CC(=O)NCc1ccc(OC)c(OC)c1)C2
→ 56*, ., ., ., -4, .
CCCCCCCCN1C(=O)[C@H](CC(=O)NCc2ccc(OC)c(OC)c2)C[C@@]2(C(=O)OC)CCCCC=C12
→ 118*, ., ., ., -6, .
COc1ccccc1N(C)c1cc2c(c3c1ccn3C)C1CCC2C1 (stereo not given)
→ 21, -6, -2, 10, 1, -11
C=CCn1c(C)cc(C2=NNC(=NC(C)(C)C)SC2)c1C
→ 13, ., ., ., 3, .
CCOc1cc(CNCc2ccncc2)cc(Br)c1OCc1ccc(F)cc1
→ 63*, -5, 0, -11, -6, -19
COc1ccc2c3c(n(C)c2c1)[C@H](CO)NCC31CCN(Cc2ccccc2Cl)CC1
→ ., -3, ., ., 17, .
COc1ccc2c3c(n(C)c2c1)[C@H](CO)NCC31CCN(Cc2cc(-c3ccccc3)on2)CC1
→ ., 69*, ., ., -6, .
O=C(NC[C@H]1[C@H](c2ccccc2)[C@H](CO)N1C(=O)Cc1cccnc1)C1CC1
→ ., 7, -16, 0[16.7 µM], 3, 9
Cc1c(C(=O)OCc2ccccc2)[nH]c2c1C(=O)CC(c1ccco1)C2 (stereo not given)
→ ., 3, -1, 139*, ., -11
CC(C)(C#N)Cc1cc(CC(C)(C)C#N)cc(C(C)(C)C)c1
→ 33, -4, 2, 0, 0, 5
N#CC(Cc1cccc(CC(C#N)(c2ccccc2)c2ccccc2)c1)(c1ccccc1)c1ccccc1
→ 57*, -4, 1, -1, 2, -27
CCOc1ccc(NC2c3ccccc3C(=O)N2Cc2ccc3c(c2)OCO3)cc1 (stereo not given)
→ -12, -51, 1, 48, 9, -4
COc1cc(NC2c3ccccc3C(=O)N2Cc2ccc3c(c2)OCO3)cc(OC)c1OC (stereo not given)
→ 87*, -13, 3, 16, 2, 1
Cc1cc(N=O)c(C)cc1O
→ ., -18, -1, -4, ., -4
Cc1cc(O)c(-c2cc(O)c(C)cc2O)cc1O
→ -9, -32, -1, -12, 37*, -20
COCCN1Cc2cccc(C(=O)Nc3cccc(-c4nc5ccccc5[nH]4)c3)c2C1=O
→ 10, -12, 2, 3, -8, 3
CCNC1CCC(Nc2ccnc3cc(Cl)ccc23)CC1 (stereo not given)
→ 74*, 2, 0, -2, 7, -6
Cc1cc(C)cc(NC(=O)C(OC(=O)c2cccs2)c2ccccc2)c1 (stereo not given)
→ 11, ., 1, 23, 3, -8
COC(=O)c1[nH]c(C)c(/C(O)=C2\C(=O)C(=O)N(CCN(C)C)C2c2cc(OC)ccc2OC)c1C (stereo not given)
→ ., ., -1, ., ., -8
CN(C[C@@H]1N[C@H](CO)[C@@H]1c1ccc(-c2cccc(F)c2)cc1)S(C)(=O)=O
→ ., 4, 0, 50[16.7 µM], -8, -7
CN(C[C@H]1N[C@@H](CO)[C@H]1c1ccc(-c2cccc(F)c2)cc1)S(C)(=O)=O
→ ., 20, 99*, ?, 7, 17
C[C@@H]1CN([C@H](C)CO)C(=O)c2cccc(NS(=O)(=O)c3ccccc3)c2O[C@@H]1CN(C)Cc1ccccc1
→ ., 4, 3, 8[16.7 µM], ., -8
Cc1ccc(S(=O)(=O)N2CCCCC2)cc1NC(=O)Cn1c(=O)cnc2ccccc21
→ 59*, 8, ., 8, 4, .

Profiles, quoted from the list. Order of screens: Env fusion inh	PGC1a acetyl inh	Cneo AK release	miR122 inh	FN deposition inh	Yeast UUG start
Cc1ccc(S(=O)(=O)N2CCCCC2)cc1NC(=O)Cn1c(=O)cnc2ccccc21 in the list: 59*	8	.	8	4	.
Cc1cc(O)c(-c2cc(O)c(C)cc2O)cc1O in the list: -9	-32	-1	-12	37*	-20
Cc1cc(N=O)c(C)cc1O in the list: .	-18	-1	-4	.	-4
CN(C[C@@H]1N[C@H](CO)[C@@H]1c1ccc(-c2cccc(F)c2)cc1)S(C)(=O)=O in the list: .	4	0	50[16.7 µM]	-8	-7
COC(=O)c1[nH]c(C)c(/C(O)=C2\C(=O)C(=O)N(CCN(C)C)C2c2cc(OC)ccc2OC)c1C (stereo not given) in the list: .	.	-1	.	.	-8

Next section:
Value order – Env fusion inh, PGC1a acetyl inh, Cneo AK release, miR122 inh, FN deposition inh, Yeast UUG start
Cc1ccc(NC(=O)Cn2c(=O)cnc3ccccc32)cc1S(=O)(=O)N1CCCCC1
→ 8, 0, 1, 9, 1, 9
CCOC(=O)NCc1ccc2[nH]c(C)cc2c1
→ ., 12, 136*, -4, 6, -11
O=S1(=O)CCC(N=Cc2cc(Br)ccc2O)C1 (stereo not given)
→ ., -7, 85*, -5, ., -10
CCCNC(=O)C1CC(=O)N(c2ccc(OCC(=O)Nc3cc(C)cc(C)c3)cc2)C1 (stereo not given)
→ 19, ., -1, 10, 4, -13
Cc1ccc(S(=O)(=O)NC(C)(C)CSc2nnc(Nc3ccccc3)s2)cc1
→ 58*, -25, 2, ?, 0, -4
COc1cccc(S(=O)(=O)N2CC[C@H]3[C@H](CO)Nc4ccc(-c5ccc(C#N)cc5)cc4[C@H]32)c1
→ ., -3, -8, 3[16.7 µM], 19, -3
Cc1ccc(S(=O)(=O)N2CC[C@H]3[C@H](CO)Nc4ccc(-c5ccccc5F)cc4[C@H]32)cc1
→ ., 0, 0, 39[16.7 µM], 13, 8
Cc1ccc(S(=O)(=O)N2CC[C@@H]3[C@H](CO)Nc4ccc(-c5ccccc5F)cc4[C@@H]32)cc1
→ ., -14, 90*, 62[16.7 µM], -4, 7
COc1cccc(-c2ccc3c(c2)[C@@H]2[C@@H](CCN2C(=O)C2CCCC2)[C@@H](CO)N3)c1
→ 28[16.7 µM], -8, ., ., 12, .
COc1cccc(-c2ccc3c(c2)[C@@H]2[C@@H](CCN2S(=O)(=O)c2cccc(OC)c2)[C@@H](CO)N3)c1
→ ., -9, -3, -13[16.7 µM], 38*, -3
COc1cccc(-c2ccc3c(c2)[C@H]2[C@H](CCN2C(=O)C2CCCC2)[C@H](CO)N3)c1
→ 56*[16.7 µM], -7, ., ., 1, .
N#Cc1ccc(-c2ccc3c(c2)[C@@H]2[C@@H](CCN2S(=O)(=O)c2cccc(F)c2)[C@@H](CO)N3)cc1
→ ., 5, -8, -3[16.7 µM], 35*, 1
Cc1cc(NC(=O)COC(=O)c2c(C)noc2C)ccc1Br
→ 6, ., 1, -3, 3, -9
Cc1cc(NC(=O)C2CC2)ccc1NC(=O)c1cccs1
→ 1, ., ., -8, 3, .
O=C(Nc1cccnc1Cl)c1cccnc1Cl
→ i, -3, 0, -2, 0, -17
